# Binding of CDR-mutated scFvs to a peptide of the spike HR2 region

Antigen: PDVDLGDISGINAS, a 14-residue peptide of the SARS-CoV-2 spike HR2 region.

Each scFv is VH, a 15-residue (Gly4Ser)3 linker, VL, as in the parent Ab-14, and differs from it in the CDRs of the heavy chain only.
VH: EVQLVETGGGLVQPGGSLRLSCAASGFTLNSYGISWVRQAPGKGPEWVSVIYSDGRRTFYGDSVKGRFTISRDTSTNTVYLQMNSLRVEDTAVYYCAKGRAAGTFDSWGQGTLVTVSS
VL: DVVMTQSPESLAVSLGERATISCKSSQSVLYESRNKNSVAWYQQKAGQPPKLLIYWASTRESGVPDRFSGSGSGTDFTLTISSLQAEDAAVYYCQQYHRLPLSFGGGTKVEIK

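The starting antibody came from a phage panning campaign against this peptide. The variants were designed computationally from a first round of random CDR variants and then made and measured. Their group label is 14H_En_HC (En: ensemble of fine-tuned language models; HC: hill climbing; a sequence that several methods proposed may carry one label only). In AlphaSeq, yeast of one mating type display the scFv and yeast of the other type display the target. Binding brings cells together so that they mate, and sequencing counts the barcode pairs among the diploids. A regression on co-assayed BCL2-family reference pairs converts the normalised counts of each replicate to an apparent Kd. Mating was done six times.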

The parent's heavy chain CDRs are GFTLNSYGIS, VIYSDGRRTFYGDSVK, GRAAGTFDS; each variant's own CDRs replace them letter for letter. The read-out is the apparent dissociation constant on a log10 scale (nM): the lower, the stronger. An entry "nd" has no value in the source: the pair was not observed among the diploids in that replicate. This suggests poor binding but is not conclusive. Of ten entries with the parent sequence, four were seen in most replicates (averages 0.34 to 2.37), three in one and three in none, so single entries are noisy. In the paper, a design with two or fewer of six values counts as a poor binder. Nonspecific signal, from three strains lacking the peptide, appeared in 1% of pairings of all heavy chain designs, centred on 2.08 (5% of these signals below 0.84); values are not corrected for it. The control count says in how many pairings with the empty strains this scFv gave a signal, with their mean in brackets. A sequence measured in both rounds can read differently, since the two assays cover different ranges.

| # | CDR-H1 | CDR-H2 | CDR-H3 | log10 Kd (nM) by replicate | control signals |
|---|---|---|---|---|---|
| 1 | GFDLDEYGIS | VIYADGRRTAYADSVK | GENAGTFDA | 0.16 -0.34 -0.47 -0.87 -0.56 -0.16 | 0/18 |
| 2 | GFDLDEYGIS | VIYADGRRTFYQDSVK | GQNAGTFDQ | -0.86 -0.93 -0.93 -0.97 -0.45 -0.73 | 0/18 |
| 3 | GFDLDEYGIS | VIYADGRRTFYADSVK | GELAGTFFV | -0.07 0.06 nd 1.81 0.33 0.90 | 0/18 |
| 4 | GFDLNEYGIS | VIYADGRRTAYSDSVK | GGNAGTFDA | -0.29 -0.24 -0.33 -0.27 -0.30 0.12 | 0/18 |
| 5 | GFDLNEYGIS | VIYADGKRTFYADSVK | GQVAGTFDS | -1.18 -0.93 -1.29 -1.11 -1.04 -1.08 | 0/18 |
| 6 | GFDLNEYGIS | VIYADGRRTAYSDSVK | GGNAGFFDE | nd nd nd nd nd nd | 0/18 |
| 7 | GFDLNEYGIS | VIYADGRRTFYADSVK | GENAGTFFS | nd nd 0.88 nd nd -0.09 | 0/18 |
| 8 | GFDLEEYGIS | VIYADGRRTFYADSVK | GNVAGTFDV | -0.23 -0.13 -0.65 -0.45 -0.76 -0.35 | 0/18 |
| 9 | GFNLEDYGIS | VIYADGKRTAYADSVK | GEVAGTFDV | -0.01 -0.34 -0.35 0.00 -0.44 -0.50 | 0/18 |
| 10 | GFDLDEYGIS | VIYADGRRTYYQDSVK | GNVAGTFDV | -0.62 -0.22 -0.34 -0.26 -0.32 -0.20 | 0/18 |
| 11 | GFNLNEYGIS | VIYADGKRTFYADSVK | GEVAGTFDV | -0.39 -0.41 -0.51 -0.67 -0.62 -0.53 | 0/18 |
| 12 | GFNLEDYGIS | VIYADGQRTFYADSVK | GKVAGTFDV | -0.55 -0.81 0.50 -1.30 -1.16 -1.11 | 0/18 |
| 13 | GFDLNEYGIS | VIYADGRRTAYTDSVK | GEAAGTFDS | -1.63 -1.02 -0.57 -0.79 -1.57 -1.25 | 0/18 |
| 14 | GFDLDEYGIS | VIYADGRRTFYADSVK | GTNAGTFVS | nd nd nd 2.07 nd 2.26 | 0/18 |
| 15 | GFDLNEYGIS | VIYADGMRTHYTDSVK | GNEAGTFDF | nd nd 0.46 0.47 0.01 nd | 0/18 |
| 16 | GFDLNEYGIS | VIYADGRRTFYTDSVK | GNAAGTFSV | -0.02 -0.06 -0.50 -0.13 -0.56 -0.14 | 0/18 |
| 17 | GFDLNDYGIS | VIYADGRRTAYADSVK | GEVAGTFDS | -0.03 0.30 -0.42 -0.19 -0.33 -0.03 | 0/18 |
| 18 | GFDLDEYGIS | VIYADGRRTFYIDSVK | GQNAGTFDQ | 0.22 -0.37 -0.59 -0.92 -0.09 -0.45 | 0/18 |
| 19 | GFSLDEYGIS | VIYADGRRTFYTDDVK | GNVAGTFDS | -0.09 -0.74 -0.95 -0.85 -0.81 -0.83 | 1/18 (2.94) |
| 20 | GFDLEEYGIS | VIYADGRRTQYADSVK | GEAAGTFDL | -0.43 nd 0.22 -0.01 nd nd | 0/18 |
| 21 | GFDLESYGIS | VIYADGSRTAYADSVK | GNVAGTFTL | -0.23 -0.17 -0.65 -0.63 -0.83 0.08 | 0/18 |
| 22 | GFNLNEYGIS | VIYADGMRTFYSDSVK | GETAGTFDN | -0.79 -0.74 -0.98 -0.66 -1.06 -0.98 | 0/18 |
| 23 | GFDLNEYGIS | VIYADGRRTFYIDSVK | GEIAGTFNI | -0.26 -0.13 -0.17 -0.46 -0.71 -0.09 | 0/18 |
| 24 | GFDLNEYGIS | VIYADGRRTAYIDSVK | GHNAGTFDS | 0.13 -0.26 -0.60 -0.76 -0.39 -0.37 | 1/18 (1.37) |
| 25 | GFDLNEYGIS | VIYADGVRTAYADSVK | GKVAGTFNV | -0.45 -0.18 -0.65 -0.68 -0.76 -0.56 | 0/18 |
| 26 | GFDINEYGIS | VIYADGRRTFYADSVK | GQTAGTFDM | -0.27 -0.66 -1.09 -0.52 -0.89 -1.02 | 0/18 |
| 27 | GFNLNEYGIS | VIYADGMRTAYTDSVK | GETAGTFDV | -0.76 -0.67 -0.52 -0.78 -0.39 -0.03 | 1/18 (1.62) |
| 28 | GFDLNEYGIS | VIYADGRRTFYADSVK | GKLAGTFNV | 0.12 0.47 -0.19 0.18 0.34 0.48 | 0/18 |
| 29 | GFDLNEYGIS | VIYADGRRTFYTDSVK | GEVAGTFDK | -0.69 -0.60 -0.72 -0.92 -1.01 -0.73 | 1/18 (2.51) |
| 30 | GFDLNEYGIS | VIYADGFRTFYTDSVK | GEVAGTFDN | 0.46 -0.20 -0.40 -0.36 -0.59 -0.40 | 0/18 |
| 31 | GFDLNEYGIS | VIYADGRRTFYADSVK | GEIAGTFDE | -0.40 -0.42 -0.65 -0.79 -0.83 -0.24 | 0/18 |
| 32 | GFDLEDYGIS | VIYADGQRTFYADSVK | GNVAGTFDS | -0.41 -0.47 -0.58 -0.70 -0.51 -0.26 | 0/18 |
| 33 | GFDLNEYGIS | VIYADGRRTQYIDSVK | GNVAGTFDF | -0.39 -0.37 -0.20 -0.63 -0.37 -0.45 | 0/18 |
| 34 | GFDLNEYGIS | VIYADGRRTFYSDSVK | GTVAGTFDQ | -0.93 -0.71 -0.93 -1.29 -0.97 -0.59 | 0/18 |
| 35 | GFDLDEYGIS | VIYADGMRTFYKDSVK | GQNAGTFDQ | -0.73 -0.57 -0.83 -0.88 -0.89 -0.53 | 0/18 |
| 36 | GFDLNEYGIS | VIYADGRRTAYSDSVK | GEVAGTFDA | -0.33 -0.59 -0.33 -0.59 -0.59 -0.62 | 1/18 (1.01) |
| 37 | GFDLEDYGIS | VIYADGRRTFYADSVK | GNVAGTFDE | -0.69 -0.30 -0.69 -1.32 -0.87 -0.14 | 0/18 |
| 38 | GFDLNEYGIS | VIYADGRRTFYADSVK | GDVAGTFIQ | 0.18 -0.17 -0.83 0.15 -0.68 -0.36 | 0/18 |
| 39 | GFDLNEYGIS | VIYADGRRTAYIDSVK | GHAAGTFDL | 0.12 -0.19 -0.16 -0.07 -0.22 0.04 | 2/18 (2.02) |
| 40 | GFDLNEYGIS | VIYADGRRTFYLDSVK | GQVAGTFDS | -0.41 -0.60 -0.65 -0.65 -0.72 -0.23 | 0/18 |
| 41 | GFDLNEYGIS | VIYADGKRSFYADSVK | GQLAGTFDV | -0.19 -0.48 -0.53 -0.58 -0.28 -0.12 | 0/18 |
| 42 | GFDLNEYGIS | VIYADGQRTFYSDSVK | GEVAGTFDQ | -0.23 -0.64 -1.94 -0.90 -1.54 0.01 | 0/18 |
| 43 | GFDLNEYGIS | VIYADGRRTFYADSVK | GNAAGTFDN | 0.64 0.61 0.00 -0.41 -0.42 -0.47 | 0/18 |
| 44 | GFDLNEYGIS | VIYADGRRTAYADSVK | GQAAGTFTL | -0.54 0.03 -0.58 -1.09 -1.46 -0.63 | 0/18 |
| 45 | GFDLNEYGIS | VIYADGRRTFYSDSVK | GETAGTFDE | nd 0.25 0.08 nd nd 0.84 | 0/18 |
| 46 | GFDLNEYGIS | VIYADGRRTFYADSVK | GEVAGTFVD | -0.20 -0.01 -0.01 -0.10 0.17 -0.20 | 1/18 (0.87) |
| 47 | GFDLNEYGIS | VIYADGRRTAYIDSVK | GENAGTFDM | 0.26 0.75 0.25 -0.25 -0.12 0.46 | 0/18 |
| 48 | GFQLDEYGIS | VIYADGKRTFYADSVK | GEAAGTFDI | -0.38 -0.60 -0.70 -0.67 -0.63 -0.64 | 1/18 (2.19) |
| 49 | GFELNEYGIS | VIYADGRRTFYADSVK | GNQAGTFDQ | nd nd nd nd 1.47 nd | 1/18 (1.76) |
| 50 | GFDLEEYGIS | VIYADGRRTFYSDSVK | GEAAGTFDL | -0.29 -0.29 -0.41 -0.48 -0.31 -0.23 | 0/18 |

Repeated from above, the 5 best binders with a signal in all replicates:

CDR-H1,CDR-H2,CDR-H3,log10 Kd (nM) by replicate,control signals
GFDLNEYGIS,VIYADGRRTAYTDSVK,GEAAGTFDS,-1.63 -1.02 -0.57 -0.79 -1.57 -1.25,0/18
GFDLNEYGIS,VIYADGKRTFYADSVK,GQVAGTFDS,-1.18 -0.93 -1.29 -1.11 -1.04 -1.08,0/18
GFDLNEYGIS,VIYADGRRTFYSDSVK,GTVAGTFDQ,-0.93 -0.71 -0.93 -1.29 -0.97 -0.59,0/18
GFDLNEYGIS,VIYADGQRTFYSDSVK,GEVAGTFDQ,-0.23 -0.64 -1.94 -0.90 -1.54 0.01,0/18
GFNLNEYGIS,VIYADGMRTFYSDSVK,GETAGTFDN,-0.79 -0.74 -0.98 -0.66 -1.06 -0.98,0/18

Data: MIT Lincoln Laboratory AlphaSeq set, Li et al. 2023, doi:10.1038/s41467-023-39022-2, as distributed in FLAb.